In the assay the test system is S. aureus. Nature of the assay: MICs and MBCs against selected S. aureus isolates. The class given is cell-based, Staphylococcus aureus.

In turn, `CC[C@H]1OC(=O)[C@H](C)C(=O)[C@H](C)[C@@H](O[C@@H]2O[C@H](C)C[C@H](N(C)C)[C@H]2O)[C@](C)(OC)C[C@@H](C)C(=O)[C@H](C)[C@H]2N(CCCCn3cnc(-c4cccnc4)c3)C(=O)O[C@]12C` [telithromycin, reference compound] displayed an MBC/MIC (S. aureus ATCC29213) of more than 8; an MBC/MIC (strain 1, MRSA, i-ermA) of more than 8; an MBC/MIC (strain 2, MSSA, i-ermC) of more than 8; an MBC/MIC (strain 3, MSSA, i-ermC) of more than 8; an MBC/MIC (strain 4, MRSA, i-ermA) of more than 8; an MBC/MIC (strain 5, MRSA, i-ermC) of more than 8. Also, the MBC/MIC runs as follows: (strain 6, MRSA, c-ermB) more than 8; (strain 7, MRSA, c-ermB) more than 8; (strain 10, MRSA, c-ermB) more than 8. In addition, the “bactericidal or bacteriostatic by MBC/MIC” value (selected S. aureus isolates) is reported as “bacteriostatic against all selected isolates”.

(Values after PMC11239830, “Synthetic macrolides overcoming MLSBK-resistant pathogens” (Cell Discovery, 2024).)
